The source of these data is patent US20090227619A1, “Harmine derivatives, intermediates used in their preparations, preparation processes and use therefo” (priority 2003, published 2009).

For this data set, the system named is Kunming mice. To be noted: single i.p.

Read-outs that look alike come from different tables or passages of the source.
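Further: acute toxicity in Kunming mice grouped by sex, one intraperitoneal dose at five graded levels in Tween-80 plus 0.5% CMC-Na, deaths monitored over two weeks.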

On to “2,9-dibenzyl-3-ethoxycarbonyl-β-carbolinium bromate [Compound 86]”, for which the Death rate is, setting by setting: (50% male 50% female mice, 40.96 mg/kg) 0; (50% male 50% female mice, 51.2 mg/kg) 25; (50% male 50% female mice, 64 mg/kg) 45; (50% male 50% female mice, 80 mg/kg) 65; (50% male 50% female mice, 100 mg/kg) 95; (female mice, 40.96 mg/kg) 0. The Death rate was 30 (female mice, 51.2 mg/kg); 40 (female mice, 64 mg/kg); 70 (female mice, 80 mg/kg); 100 (female mice, 100 mg/kg); 0 (male mice, 40.96 mg/kg); 20 (male mice, 51.2 mg/kg). Further, the Death rate is recorded as 50 (male mice, 64 mg/kg); 60 (male mice, 80 mg/kg); 90 (male mice, 100 mg/kg).
